From IntAct's records for PubMed 16525503

B1: Ataxin-3 (Homo sapiens), P54252-1 (parent)
chain: MESIFHEKQEGSLCAQHCLNNLLQGEYFSPVELSSIAHQLDEEERMRMAEGGVTSEDYRTFLQQPSGNMDDSGFFSIQVISNALKVWGLELILFNSPEYQRLRIDPINERSFICNYKEHWFTVRKLGKQWFNLNSLLTGPELISDTYLALFLAQLQQEGYSIFVVKGDLPDCEADQLLQMIRVQQMHRPKLIGEELAQLKEQRVHKTDLERVLEANDGSGMLDEDEEDLQRALALSRQEIDMEDEEADLRRAIQLSMQGSSRNISQDMTQTSGTNLTSEELRKRREAYFEKQQQKQQQQQQQQQQGDLSGQSSHPCERPATSSGALGSDLGKACSPFIMFATFTLYLTYELHVIFALHYSSFPL

Variants of: B1
Conditions: with tera_human VCP

Row | effect of a mutation on the interaction | Variant
1 | disrupting interaction | R282H;K283N;R284H;R285H
